Results: patent publication US20170197977A9, “COMPOSITIONS AND METHODS FOR TREATING NEURODEGENERATIVE DISEASE” (COGNITION THERAPEUTICS, INC., priority 2011, published 2017)

Key:
[1] = system: Abeta oligomer-induced membrane trafficking deficits; assay: Membrane trafficking/exocytosis (MTT) assay in mature primary hippocampal neurons; assay type: cell-based, rat; conditions: 20 uM versus 0 uM of enantiomer
From the text: The present exocytosis assay was adapted for use with mature primary neuronal cultures grown for 3 weeks in vitro. See WO/2011/106785, incorporated by reference in its entirety. Abeta oligomers cause a dose-dependent decrease in the amount of intracellular vesicles (puncta) filled with reduced purple formazan as measured via image processing using a Cellomics VTI automated microscopy system. Compare for example FIG. 1A (a photomicrograph for a cultured neuronal cell exposed to vehicle alone showing vesicles filled with formazan) with FIG. 1B (a photomicrograph of a neuronal cell exposed to vehicle plus Abeta oligomer showing considerably fewer vesicles filled with formazan and instead exocytosed formazan which when encountering the extracellular environment precipitates into crystals). Increasing the amount of Abeta oligomers eventually results in overt toxicity. Thus, the concentration of neuroactive Abeta oligomers used in the assay is much lower than that causing cell death. The inventors confirmed that the assay is operative by showing that the effects of Abeta oligomer are blocked upon addition of anti-Abeta antibody but antibody alone has no effect on its own (data not shown). […]
[…] Exocytosis was assessed by automated microscopy and image processing to quantify the amount of endocytosed and exocytosed formazan. […]

[2] = system: Abeta oligomer-induced memory deficits in wt C57BL/6 mice; assay: Contextual fear conditioning after intrahippocampal Abeta oligomer injection; assay type: in vivo, mouse; conditions: Table 10A
Procedure: Abeta oligomers (single 200 nanoMolar intrahippocampal injection) produced significant deficits in memory formation in 3-4 month old male wt C57BL/6 mice (N=16) compared to vehicle (N=18).
Several pharmaceutical companies use this same model in their discovery efforts. Contextual fear conditioning is an accepted model of associative memory formation which correlates to human cognitive function and specifically the creation of new (Delgado '06). Abeta oligomers are injected into the hippocampus of wild-type animals immediately before conditioning training and memory is assessed via freezing behavior after 24 hours. Details are provided in Example 9. […] This model system was chosen because intrahippocampal administration of oligomers allows rapid comparative assessment of compound activity and off-target toxicity. The results are shown graphically in FIG. 4.
Compound II was tested in an animal model of a memory-dependent behavioral task known as fear conditioning. The study protocol was designed based on published protocols (See e.g. Puzzo D, Privitera L, Leznik E, Fà M, Staniszewski A, Palmeri A, Arancio O. Picomolar amyloid-beta positively modulates synaptic plasticity and memory in hippocampus. J. Neurosci. 2008 Dec. 31; 28(53):14537-45.). The formation of contextual memories is dependent upon the integrity of medial temporal lobe structures such as the hippocampus. […]

SMILES | Curve shift (fold) [1] [fold] | Behavioral efficiency [2]
COc1cc(CCC(C)NCc2ccc(C(F)(F)F)cc2)ccc1O (single isomer, unassigned; (+)) [(+) enantiomer of Cpd II] | 2.86 | 
COc1cc(CCC(C)NCc2ccc(C(F)(F)F)cc2)ccc1O (single isomer, unassigned; (-)) [(−) enantiomer of Cpd II] | 1.22 | 
COc1cc(CCC(C)NCc2ccc(C(F)(F)F)cc2)ccc1O (stereo not drawn) [Compound II] |  | Yes
